Bioassay records from PubChem.
ERG-DNA inh: blocks human ERG Ets domain binding to DNA; Potency, µM (doses to about 76.9 µM), for inactives: at the highest dose FP activity, negative = inhibition, actives largely listed as inhibitors; hit rate 0.028% among 370,000; fluorescence polarization, His-ERG Ets domain / labelled DNA; P11308; AID 624246; active = well fitted inhibition curve with a large enough effect in the polarisation, with a control signal flat; inconclusive = small, poorly fitted or top-dose-only effect, or effect the other way, or a change in a side signal; inactive = no such curve, though single readings can be large or run the other way; the % refers to the polarisation;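 note: polarization taken with two DNA probes labelled with fluorescein and Texas red; potency is the fitted concentration of half-maximal effect; % of control where 0% means no effect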
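His-tagged ERG Ets domain (1 uM in the protein solution; 300mM KCl, 50mM Tris-HCl, 1mM EDTA, 1mM DTT, pH 7.5) received compound, then a probe mix of 5 nM fluorescein-DNA and 100nM Texas-615-DNA. Fluorescence polarization was read for both dyes.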
miR-21 reporter: raises the signal of a miR-21 reporter | AID 2288 | 340,000 tested, under 10 active | Potency, µM (series often up to 38.3 µM), without a hit: at the highest dose reporter change, positive = more light | HeLa miR-21 FLuc reporter, luciferase, 48 h; active = well fitted rising curve with a large enough effect; inconclusive = small, poorly fitted or top-dose-only effect; inactive = no such curve, though single readings can be large or run the other way;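 further: % of control where 0% means no effect; miR-21 action dims this reporter so a rising signal means less miR-21 action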
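HeLa cells stably expressing CMV-driven firefly luciferase with a downstream miR-21 binding sequence, endogenously expressing miR-21, were treated with titrations (up to about 40uM final) for 48 hours at 37 degree Celsius. Luciferase luminescence was read after lysis.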
Giardia kill: Giardia lamblia killing. Giardia lamblia trophozoite viability. activity change, % at 7.66 µM, hits read low. hit rate 0.15% among 340,000. AID 540267; in the data active = activity change below about -80%; inconclusive = between about -30% and that limit;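 note: parasites exposed to compound for two days anaerobically before the ATP read; % is set by controls: 0 for no effect and ±100 for the full control effect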
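Media and compound were dispensed first, then trophozoites at 100 cells/well; plates sat 48 hrs at 37 deg C without oxygen before ATP luminescence reagent was added and read after 15-30 min at room temperature.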
PINK1 modulator: changes PINK1 expression. PINK1 immunofluorescence, high-content cytometry, 24 h. hit rate 0.2% among 410,000. Potency, µM (highest dose often 76.6 µM), without a hit: at the top dose activation (PINK1 increase), actives largely listed as activators; active = well fitted activation curve with a large enough effect; inconclusive = small, poorly fitted or top-dose-only effect; cell line not stated here; note: potency is the fitted concentration of half-maximal effect; % of control where 0% means no effect; nearly all actives have a fitted effect of over 65% in size
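Stable cell line, 250 cells/well, 12 h attachment; compounds pinned at 5 concentrations, 24 h; CCCP control. Fixed with nuclear dye, primary antibodies 12 h at 10 degrees C, secondary plus cell stain; laser-scanning cytometer read.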
ALOX12 inh: blocks human arachidonate 12S-lipoxygenase | purified 12hLO, xylenol orange hydroperoxide absorbance | Potency, µM (doses to about 108 µM), without a hit: at the highest dose activity change, negative = inhibition, actives largely listed as inhibitors | hit rate 1.1% among 580,000; note: potency is the fitted concentration of half-maximal effect; % is set by controls: 0 for no effect and ±100 for the full control effect
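Purified human 12hLO (150 nM final) in 25 mM Hepes, 0.01% Triton X-100, pH 7.0 was preincubated 15 min at room temperature with compound. Then 40 uM arachidonic acid was added, 30 min. Hydroperoxide was read by Fe-XO absorbance ratio 573/405 nm.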
PTHR1 agonist: agonists of human PTHR1 parathyroid hormone receptor. Q03431. HEK293 GP2 PTHR1 cells, GloSensor cAMP luminescence, 1 h. Potency, µM (top dose mostly 115 µM), for inactives: at the top dose activation, actives largely listed as activators. hit rate 0.075% among 410,000. AID 743266; note: potency is the fitted concentration of half-maximal effect; nearly all actives have a fitted effect of over 55% in size
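HEK-293-derived GP2 cells expressing PTHR1 and a GloSensor cAMP reporter, 3,000/well, plated overnight, given luciferin plus IBMX (each 0.5 mM as added) for 1 h at 37 °C, then compound for 1 h at 37 °C. Luminescence was read after 15 min at room temperature.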
Active calls of the source: *; i = inactive; ? = inconclusive; · = not tested or not shown; [ ] = another dose, or the depositor's remark. Most compounds without a hit are left out; they make up all but 1.3% or so of the library. Unless noted, calls come from the whole dose curve; as a rule, active = well fitted curve in the direction sought with a large enough effect; inconclusive = small, poorly fitted or top-dose-only effect, or another doubt; inactive = no such curve, though single readings can be large; an effect the other way counts as inactive or inconclusive.

1: CC(C)CC(=O)Nc1ncc([N+](=O)[O-])s1
2: O=C(COC(=O)c1ccccc1)Nc1ncc([N+](=O)[O-])s1
3: COc1ccc(CC(=O)Nc2ncc([N+](=O)[O-])s2)cc1OC
4: Cc1nc(C)c(C(=O)Nc2ncc([N+](=O)[O-])s2)o1
5: O=C(Nc1ccccc1)Nc1ncc([N+](=O)[O-])s1
6: O=C(Nc1ncc(S(=O)(=O)c2ccc([N+](=O)[O-])cc2)s1)c1cccnc1
7: O=C(Nc1ncc([N+](=O)[O-])s1)c1cccc([N+](=O)[O-])c1
8: O=C(Nc1ccc(NC(=O)c2cccc([N+](=O)[O-])c2)cc1)c1cccc([N+](=O)[O-])c1

assay / compound	1	2	3	4	5	6	7	8
PINK1 modulator	1%	1%	1%	5%	?	2%	14µM*	4%
PTHR1 agonist	-24%	-28%	i	-33%	-33%	-27%	-56%	i
Giardia kill	-93*	?	-89*	-88*	?	-2	-93*	0
miR-21 reporter	-19%	·	3%	24%	28%	-1%	7%	-23%
ERG-DNA inh	15%	-7%	-4%	-11%	?	-2%	13%	14%
ALOX12 inh	?	40µM*	35µM*	?	?	0%	0%	0%

Look-ups from above.
Reading of compound 5 under PTHR1 agonist: -33%
Reading of compound 2 under ALOX12 inh: 40µM*
Reading of compound 4 under PTHR1 agonist: -33%

Next records.
9: O=C(Nc1ncc(S(=O)(=O)c2ccc([N+](=O)[O-])cc2)s1)c1ccc2ccccc2c1
10: CN1CCN(C(c2ccc(C(F)(F)F)cc2)c2ccc3cccnc3c2O)CC1 (stereo not given)
11: Oc1c(C(Nc2cccnc2)c2ccc(C(F)(F)F)cc2)ccc2cccnc12 (stereo not given)
12: CC(=O)Nc1ccc(S(=O)(=O)NCC2(N3CCOCC3)CCCCC2)cc1
13: CCS(=O)(=O)c1ccc2oc(Nc3ccc(C(C)C)cc3)nc2c1
14: C[C@H]1[C@@H]2[C@@H](O)C([C@H](C)C(=O)NCc3cccnc3)CC[C@@]2(C)CC[C@@H]1NC(=O)c1ccncc1 (stereo not given in full)
15: O=C(CC1CCCCC1)NC1CCN(c2cn[nH]c(=O)c2)CC1
16: CCCc1nc2c(=O)n(C)c(=O)nc-2n(C)n1

assay / compound	9	10	11	12	13	14	15	16
PINK1 modulator	14µM*	3%	2%	1%	12%	·	·	-1%
PTHR1 agonist	i	i	·	20%	i	·	·	-28%
Giardia kill	-1	9	·	-20	6	·	·	?
miR-21 reporter	-7%	21%	·	·	-22%	·	·	?
ERG-DNA inh	-7%	-15%	·	4%	3%	·	·	3%
ALOX12 inh	-21%	18µM*	·	2%	7.1µM*	42%	37%	-28%

17: CCc1ccc(-c2nc3c(=O)n(C)c(=O)nc-3n(CC)n2)cc1
18: Oc1ccccc1Oc1ncc(Br)c(Cl)n1
19: Oc1ccccc1Oc1ncc(Br)c(N2CCOCC2)n1
20: COc1ccc(/C=C/c2cc(C(=O)O)c3ccccc3n2)cc1OC
21: COc1cc(/C=C/c2cc(C(=O)O)c3ccccc3n2)ccc1OCCC(C)C
22: COc1ccc(/C=C/c2cc(C(F)(F)F)[nH]c(=O)n2)cc1OC
23: COc1ccc(/C=C/c2cc(C(=O)O)c3ccccc3n2)cc1
24: O=C(CC1C(=O)NCCN1CC1CCCCC1)NCCc1ccc(F)cc1 (stereo not given)

assay / compound	17	18	19	20	21	22	23	24
PINK1 modulator	0%	-1%	-2%	·	·	-3%	0%	0%
PTHR1 agonist	·	-34%	i	·	·	-25%	-30%	0%
Giardia kill	-91*	-12	10	·	·	-18	-93*	-20
miR-21 reporter	·	13%	-7%	·	·	-12%	?	-4%
ERG-DNA inh	·	5%	0%	·	·	0%	-4%	10%
ALOX12 inh	·	32µM*	0%	18µM*	-30%	8.9µM*	?	-9%

25: CCc1nn2cc(C(=O)c3cc(C)ccc3O)cnc2c1-c1ccc(F)cc1
26: Cc1ccc([N+](=O)[O-])cc1S(=O)(=O)N(C)N=Cc1cnc2ccc(Br)cn12
27: Cc1ccc(-n2nc(C(=O)N3CCN(C)CC3)c3c4ccccc4n(C)c3c2=O)cc1
28: S=C(c1ccc(-c2ccccc2Cl)o1)N1CCCCC1
29: S=C(c1ccc(-c2ccc(Cl)cc2)o1)N1CCCCC1
30: Cc1ccc(-n2cc(CNC(C)c3cnn(C)c3C)c(-c3ccc(F)cc3)n2)cc1 (stereo not given)
31: CC(C)c1ccc(NC(=O)C2CCN(C(=O)[C@@H]3Cc4ccccc4CN3)CC2)cc1
32: O=[N+]([O-])c1ccc(N/N=C/c2ccc[nH]2)cc1

assay / compound	25	26	27	28	29	30	31	32
PINK1 modulator	7%	·	-1%	7%	3%[38.3 µM]	0%	1%	?
PTHR1 agonist	-18%	·	i	-24%	-35%	i	i	-30%
Giardia kill	10	·	-10	-10	-2	21	?	0
miR-21 reporter	-9%	·	·	-69%	-47%	8%	-14%	-17%
ERG-DNA inh	0%	·	-7%	8%	8%	0%	-1%	46%
ALOX12 inh	-18%	8.6µM*	0%	?	16µM*	11%	?	35µM*

33: O=[N+]([O-])c1ccc(NN=Cc2cccc([N+](=O)[O-])c2)cc1
34: CCOc1ccc(-c2nnc(SCC(=O)NC3CCCCC3)nc2-c2ccc(OCC)c(OC)c2)cc1OC
35: COc1cc(C(=O)Nc2ccc(N(C)C)cc2)cc(OC)c1OC
36: COc1cc(C(=O)Nc2ccc(S(=O)(=O)N(C)c3ccccc3)cc2)cc(OC)c1OC
37: COc1cc(C(=O)Nc2c(C(=O)O)[nH]c3ccc(Br)cc23)cc(OC)c1OC
38: COc1cc(C(=O)NC(=S)Nc2ccc3ccccc3c2)cc(OC)c1OC
39: COc1cccc(-c2cc3c(=O)n(CCNC(=O)Cc4ccc(F)cc4)ccn3n2)c1
40: O=C1CCc2cc(S(=O)(=O)NC(Cc3ccccc3)C(=O)NCCC3=CCCCC3)ccc2N1 (stereo not given)

assay / compound	33	34	35	36	37	38	39	40
PINK1 modulator	1%	2%	11µM*	2%	0%	7%	·	2%
PTHR1 agonist	-14%	i	-11%[57.5 µM]	-3%	i	i	·	-30%
Giardia kill	7	·	15	-3	36	·	·	-15
miR-21 reporter	·	-6%	-12%	17%	4%	·	·	7%
ERG-DNA inh	6%	2%	8%	1%	-3%	·	·	-6%
ALOX12 inh	?	8%	-36%	15%	40µM*	18µM*	29%	2%

41: Oc1ccccc1NCC(O)Cn1ccc2ccccc21 (stereo not given)
42: O=C(N/N=C/c1cc([N+](=O)[O-])cc([N+](=O)[O-])c1O)/C(=C\c1cccs1)NC(=O)c1ccccc1
43: Cc1ccc2nc(Cl)c3cc(C(=O)NC4CCCCCC4)sc3c2c1
44: CCOC(=O)c1ccc(CN(Cc2ccc(Br)cc2)S(=O)(=O)c2cccc(Cl)c2C)cc1
45: CN(C(=S)NC(=O)C1CCCC1)c1ccccc1
46: CN(Cc1ccccc1)C(=S)NC(=O)C1CCCCC1

assay / compound	41	42	43	44	45	46
PINK1 modulator	2%[38.3 µM]	1%	0%	1%	0%	0%
PTHR1 agonist	i	i	?	i	-9%	i
Giardia kill	-15	4	·	·	·	2
miR-21 reporter	-15%	-10%	-1%	3%	·	-27%
ERG-DNA inh	-5%	-1%	-1%	5%	·	-3%
ALOX12 inh	?	16µM*	3%	-22%	20µM*	-9%

PINK1 modulator: what is marked active above.
entry | compound | PINK1 modulator | PTHR1 agonist | miR-21 reporter | ERG-DNA inh | ALOX12 inh
7 | O=C(Nc1ncc([N+](=O)[O-])s1)c1cccc([N+](=O)[O-])c1 | 14µM* | -56% | 7% | 13% | 0%
9 | O=C(Nc1ncc(S(=O)(=O)c2ccc([N+](=O)[O-])cc2)s1)c1ccc2ccccc2c1 | 14µM* | i | -7% | -7% | -21%
35 | COc1cc(C(=O)Nc2ccc(N(C)C)cc2)cc(OC)c1OC | 11µM* | -11%[57.5 µM] | -12% | 8% | -36%
